Results taken from patent EP0920324B1, “PURE BIOLOGICALLY ACTIVE COLISTIN, ITS COMPONENTS AND A COLISTIN FORMULATION FOR TREATMENT OF PULMONARY INFECTIONS” (PATHOGENESIS CORPORATION, priority 1996, dated 1998).

Assay: Solution pH monitored over time after dissolution
Assay type: physicochemical
Details: freshly dissolved in water at 10.0, 15.0 and 20.0 mg/ml
Experimental: Acidic stability of the colimycin solution was determined according to Example 11. Briefly, colimycin (405 mg) was freshly dissolved in water to achieve 10.0 mg/ml, 15.0 mg/ml, and 20.0 mg/ml solutions. These values correspond to concentrations of 3.7 mg/ml, 5.6 mg/ml and 7.4 mg/ml colistin base equivalent. Solution pH was monitored continuously at various times from 1 minute to 180 minutes and pH values and times were recorded.
Determination of component IV stability at physiologic pH was made by dissolving purified colistin component IV sulfate or hydrochloride at a concentration of 20 mg/ml in sterile water containing 120 mM NaCl. The solution was mixed and pH was monitored. A 10 N NaOH solution was used to adjust the solution pH to 6.95-7.00. Results are seen in Figure 16.
The pH of freshly dissolved colimycin was determined by weighing a freshly opened vial of Coly-Mycin M Parenteral, Parke-Davis, lot# 01966P, containing 405 mg into 20 ml glass screwcap scintillation vials and adding an appropriate volume of sterile irrigation water to achieve 10.0 mg/ml, 15.0 mg/ml, and 20.0 mg/ml solutions. […] Solution pH was then monitored continuously using a Beckman Phi-10 pH meter fitted with a Beckman Futura Plus combination electrode calibrated at pH 4.0 and 7.0 as per manufacturer's instructions prior to use. At various times from 1 minute to 180 minutes, pH values and times were recorded.

colimycin
starting pH of solution: 6.80
